The chains behind the UniProt entries cited, without tags or fusion partners. Where a name states a change or a piece, a line headed by the entry shows the natural chain unless it says otherwise.
UniProt P11511: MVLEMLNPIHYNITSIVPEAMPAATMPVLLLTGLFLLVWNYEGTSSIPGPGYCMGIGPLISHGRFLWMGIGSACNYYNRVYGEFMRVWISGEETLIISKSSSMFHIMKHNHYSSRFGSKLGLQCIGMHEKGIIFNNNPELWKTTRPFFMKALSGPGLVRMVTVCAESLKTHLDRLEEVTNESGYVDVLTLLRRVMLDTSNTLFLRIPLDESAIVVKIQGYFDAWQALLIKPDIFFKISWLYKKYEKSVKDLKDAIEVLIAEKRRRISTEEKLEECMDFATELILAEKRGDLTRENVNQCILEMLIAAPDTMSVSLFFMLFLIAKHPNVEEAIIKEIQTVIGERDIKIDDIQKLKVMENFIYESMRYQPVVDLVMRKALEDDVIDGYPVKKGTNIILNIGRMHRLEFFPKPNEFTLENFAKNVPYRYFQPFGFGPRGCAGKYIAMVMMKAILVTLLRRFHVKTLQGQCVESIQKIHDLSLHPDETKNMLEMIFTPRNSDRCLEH

In US9845295B2, “Triphenylethylene compounds and uses thereof” (Purdue Research Foundation, priority 2015, dated 2017):

Target: T1, recombinant human aromatase (CYP19) (Homo sapiens, UniProt P11511)
T1 construct: purchased BD Biosciences (San Jose, Calif.)
Experiment: Inhibition of recombinant human aromatase (CYP19) by microsomal incubations (MFC fluorometric substrate)
Format: biochemical
Settings: vs compound 7

With `CC/C(=C(\c1ccc(O)cc1)c1ccc(OCCN)cc1)c1ccccc1` [(E,Z)-norendoxifen, reference compound] the “fold improvement/increase in aromatase inhibitory activity compared with 7” value was > 240 fold.
